These results are taken from patent US10947239B2, “[1,2,4]triazolo[1,5-a]pyrimidin-7-yl compound” (Janssen Pharmaceutica NV, priority 2015, dated 2021).

The chains behind the UniProt entries cited, without tags or fusion partners.
UniProt O00408, whole entry: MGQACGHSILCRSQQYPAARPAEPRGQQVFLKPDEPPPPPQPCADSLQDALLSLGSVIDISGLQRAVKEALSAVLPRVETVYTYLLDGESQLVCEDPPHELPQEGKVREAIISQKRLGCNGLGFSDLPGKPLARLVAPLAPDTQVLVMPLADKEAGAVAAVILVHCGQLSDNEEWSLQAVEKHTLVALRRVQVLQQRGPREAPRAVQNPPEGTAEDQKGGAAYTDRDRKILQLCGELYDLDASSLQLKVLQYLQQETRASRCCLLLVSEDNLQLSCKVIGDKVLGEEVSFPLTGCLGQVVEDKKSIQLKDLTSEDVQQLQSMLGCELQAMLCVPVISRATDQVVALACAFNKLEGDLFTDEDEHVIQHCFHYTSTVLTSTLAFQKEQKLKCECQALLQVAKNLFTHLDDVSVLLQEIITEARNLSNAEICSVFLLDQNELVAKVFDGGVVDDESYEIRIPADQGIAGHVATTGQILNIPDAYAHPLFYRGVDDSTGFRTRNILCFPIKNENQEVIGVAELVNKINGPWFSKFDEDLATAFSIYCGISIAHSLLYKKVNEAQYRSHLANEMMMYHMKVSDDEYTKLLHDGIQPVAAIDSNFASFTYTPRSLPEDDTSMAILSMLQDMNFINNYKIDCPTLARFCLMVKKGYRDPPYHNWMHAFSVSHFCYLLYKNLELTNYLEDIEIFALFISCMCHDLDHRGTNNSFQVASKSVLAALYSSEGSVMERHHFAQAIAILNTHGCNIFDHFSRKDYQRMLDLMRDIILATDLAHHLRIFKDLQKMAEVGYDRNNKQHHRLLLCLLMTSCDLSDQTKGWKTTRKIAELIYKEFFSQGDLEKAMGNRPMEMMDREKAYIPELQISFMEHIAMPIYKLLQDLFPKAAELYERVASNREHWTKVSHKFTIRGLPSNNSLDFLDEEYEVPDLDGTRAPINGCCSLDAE
UniProt Q14432, whole entry: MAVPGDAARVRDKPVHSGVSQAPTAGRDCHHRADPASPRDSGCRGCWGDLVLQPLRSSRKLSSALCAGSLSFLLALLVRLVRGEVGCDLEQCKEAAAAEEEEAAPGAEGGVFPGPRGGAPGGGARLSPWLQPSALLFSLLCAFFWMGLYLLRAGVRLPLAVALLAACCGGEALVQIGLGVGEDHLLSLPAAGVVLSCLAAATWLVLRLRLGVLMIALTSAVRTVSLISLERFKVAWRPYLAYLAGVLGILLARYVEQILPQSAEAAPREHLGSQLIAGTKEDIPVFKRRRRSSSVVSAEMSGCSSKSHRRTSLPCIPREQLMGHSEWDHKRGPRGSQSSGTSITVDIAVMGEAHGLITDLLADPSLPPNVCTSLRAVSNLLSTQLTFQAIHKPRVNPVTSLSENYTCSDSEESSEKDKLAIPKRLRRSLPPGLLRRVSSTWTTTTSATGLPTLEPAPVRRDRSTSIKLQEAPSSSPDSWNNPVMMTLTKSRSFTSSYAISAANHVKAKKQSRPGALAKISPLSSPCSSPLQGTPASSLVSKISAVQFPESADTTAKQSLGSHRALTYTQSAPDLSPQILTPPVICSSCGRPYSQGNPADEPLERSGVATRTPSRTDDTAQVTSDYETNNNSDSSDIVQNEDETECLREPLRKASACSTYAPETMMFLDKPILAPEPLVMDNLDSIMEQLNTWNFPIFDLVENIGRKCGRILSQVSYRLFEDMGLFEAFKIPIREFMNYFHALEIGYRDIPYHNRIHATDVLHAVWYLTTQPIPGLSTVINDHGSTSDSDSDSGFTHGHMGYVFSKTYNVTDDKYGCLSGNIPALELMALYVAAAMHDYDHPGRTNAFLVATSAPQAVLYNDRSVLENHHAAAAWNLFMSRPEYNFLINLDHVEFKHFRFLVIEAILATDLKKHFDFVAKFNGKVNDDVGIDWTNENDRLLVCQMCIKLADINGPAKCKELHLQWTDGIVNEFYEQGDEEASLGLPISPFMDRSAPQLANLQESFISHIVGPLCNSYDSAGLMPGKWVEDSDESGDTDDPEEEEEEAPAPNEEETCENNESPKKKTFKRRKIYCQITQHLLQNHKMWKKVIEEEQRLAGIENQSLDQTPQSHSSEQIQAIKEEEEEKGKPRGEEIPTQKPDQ
UniProt Q9QYJ6, whole entry: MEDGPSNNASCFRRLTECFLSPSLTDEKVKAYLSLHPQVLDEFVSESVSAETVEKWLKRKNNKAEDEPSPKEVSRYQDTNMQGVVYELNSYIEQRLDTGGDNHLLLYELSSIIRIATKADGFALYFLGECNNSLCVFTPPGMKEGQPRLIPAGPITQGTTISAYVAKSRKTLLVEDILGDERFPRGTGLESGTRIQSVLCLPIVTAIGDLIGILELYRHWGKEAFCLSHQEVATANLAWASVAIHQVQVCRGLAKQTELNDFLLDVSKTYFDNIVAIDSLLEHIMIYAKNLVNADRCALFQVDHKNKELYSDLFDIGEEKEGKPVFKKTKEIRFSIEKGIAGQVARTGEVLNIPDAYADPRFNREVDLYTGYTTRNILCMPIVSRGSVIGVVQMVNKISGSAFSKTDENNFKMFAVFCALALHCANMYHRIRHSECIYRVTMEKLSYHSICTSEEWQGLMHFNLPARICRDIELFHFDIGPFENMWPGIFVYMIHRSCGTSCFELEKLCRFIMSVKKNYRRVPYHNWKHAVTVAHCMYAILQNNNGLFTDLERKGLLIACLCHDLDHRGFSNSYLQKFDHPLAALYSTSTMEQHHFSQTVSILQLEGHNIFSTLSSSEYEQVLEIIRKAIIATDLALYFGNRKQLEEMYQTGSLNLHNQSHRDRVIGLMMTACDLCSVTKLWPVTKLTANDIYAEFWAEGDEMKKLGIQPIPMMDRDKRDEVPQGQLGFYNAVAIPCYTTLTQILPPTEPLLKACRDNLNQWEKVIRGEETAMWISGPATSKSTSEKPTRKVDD

The target in experiment [1] is Human recombinant PDE2A (hPDE2A) (Homo sapiens (Human), UniProt O00408). The experiment in a line: In vitro assay PDE2A (SPA, 3H-cGMP).
For experiment [2], the target named is Human recombinant PDE3A (hPDE3A) (Homo sapiens, UniProt Q14432). The experiment is described as follows: In vitro assay PDE3A (SPA, 3H-cAMP). The settings on record: −log IC50 expressed in mol/L; method describes hPDE3A. The method, then:
Human recombinant PDE3A (hPDE3A) was supplied as a partially purified insect cell lysate by Scottish Biomedical, it was cloned from human brain and expressed in Sf9 cells. Tested compounds were dissolved and diluted in 100% DMSO to a concentration 100 fold of the final concentration in the assay. Compound dilutions (0.4 μl) were added in 384 well plates to 20 μl of incubation buffer (50 mM Tris pH 7.8, 8.3 mM MgCl2, 1.7 mM EGTA). 10 μl of hPDE3A enzyme in incubation buffer was added and the reaction was started by addition of 10 μl substrate to a final concentration of 0.4 μM cAMP and 2.4 μCi/ml [^3H]-cAMP. The reaction was incubated for 60 min at room temperature. After incubation, the reaction was stopped with 20 μl of stop solution consisting of 17.8 mg/ml PDE SPA (scintillation proximity assay) beads supplemented with 200 mM ZnCl2. After sedimentation of the beads during 30 min the radioactivity was measured in a Perkin Elmer Topcount scintillation counter and results were expressed as cpm. For blanc values the enzyme was omitted from the reaction and replaced by incubation buffer. Control values were obtained by addition of a final concentration of 1% DMSO instead of compound. […]

Experiment [3] addresses Rat recombinant PDE10A (rPDE10A2) (Rattus norvegicus (Rat), UniProt Q9QYJ6). The experiment in a line: In vitro assay PDE10A (SPA, 3H-cAMP). The settings on record: −log IC50 expressed in mol/L.

Each structure is given as a SMILES string.

In the case of `Cc1cc(C(=O)N2CC[C@@H](C)[C@H](c3cc(C(F)F)nc4ncnn34)C2)cc(C)n1` [Compound 1], the IC50 in experiment [1] (read-out: IC50 PDE2A, hPDE2A, 10 μM cGMP) was 0.7 nM. The “pIC50 (PDE2A)” value in experiment [1] (−log IC50 expressed in mol/L) turned out to be 9.11. In addition, in experiment [2], the “pIC50 PDE3B” value stood at 5.15. Further, in experiment [3], the “pIC50 PDE10A2” value is recorded as 6.93.

The term IC50 denotes the concentration that inhibits the measured activity by half.
